Test results reported in US20250368686A1, “PEPTIDE DRUGS FOR S[…] D[…] BLOCKING HOMO- AND HETERO-DIMERIZATION OF OPIOID RECEPTORS” (OKINAWA INSTITUTE OF SCIENCE AND TECHNOLOGY SCHOOL …, priority 2022, published 2025).

System: MOR
Assay type: cell-based, rat
Details: D- and K-cells

## CN1CC[C@]23c4c5ccc(O)c4O[C@H]2[C@@H](O)C=C[C@H]3[C@H]1C5 [morphine]
  intracellular Ca2+ mobilisation: not
